In patent US20260191962A1, “NOVEL CHLORIN E6 ANALOGUES” (RMW CHO Group Limited, priority 2022, published 2026):

Test: Stability of chlorin e6 analogue salts in aqueous solution (HPLC purity over time)
Type: physicochemical
Details: distilled deionised water, 30° C., air and ambient light not excluded
Protocol: Reaction solutions were prepared by dissolving 2-3 mg of the respective chlorin e6 analogue salt in 5 mL of distilled deionised water in a 50 mL test tube fitted with a lid. The solutions were stirred in the test tubes at 30° C. Air (oxygen) and ambient light so were not excluded. Sample HPLC analyses were performed at 0.5, 4 or 66 hours (unless indicated otherwise). The aim was to look for degradation over time.
• Mobile Phase: A=0.05% w/v phosphoric acid in distilled water; B=acetonitrile • Injection volume: 5 μL • HPLC run length: 35 minutes • Detection wavelength: 406 nm • Column temperature: 40° C.

| Purity by HPLC after 0.5 hours (%) | Purity by HPLC after 4 hours (%) | Purity by HPLC (%) after 4 days (after 4 days) | Purity by HPLC after 4 hours (%) (Disodium Salt) | SMILES |
| --- | --- | --- | --- | --- |
| 93.03 | 95.22 | 94.62 (after % | – | C=Cc1c(C)c2cc3nc(c(CC(=O)OCC)c4[nH]c(cc5nc(cc1[nH]2)C(C)=C5CC)c(C)c4C(=O)O)[C@@H](CCC(=O)O)[C@@H]3C [Compound 18, Chlorin e6 15-ethyl Ester mono(N-methyl-D-glucamine) Salt] |
| – | – | – | 77.98 | C=Cc1c(C)c2cc3nc(c(CC(=O)OCC)c4[nH]c(cc5nc(cc1[nH]2)C(C)=C5CC)c(C)c4C(=O)O)[C@@H](CCC(=O)O)[C@@H]3C [Compound 17, Chlorin e6 15-ethyl Ester Disodium Salt] |
| 96.95 | 97.15 | – | – | C=Cc1c(C)c2cc3nc(c(CC(=O)OCC)c4[nH]c(cc5nc(cc1[nH]2)C(C)=C5CC)c(C)c4C(=O)O)[C@@H](CCC(=O)O)[C@@H]3C [Compound 16, Chlorin e6 15-ethyl Ester bis(N-methyl-D-glucamine) Salt] |

Counter-ions that a name gives are not always drawn.
